Data: PubChem BioAssay AID493087 (The Scripps Research Institute Molecular Screening Center, 2011)
Only a part is listed here, and it is no random draw. The source made the active and inactive calls.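 How the source made its calls: active means activation above the mean of all tested compounds plus 3 SD, set per screening campaign (cut at about 17% in these data); inactive means the rest.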

Sequences of proteins named here, by UniProt entry; tags and fusion partners are left off.
UniProt P14735, whole entry: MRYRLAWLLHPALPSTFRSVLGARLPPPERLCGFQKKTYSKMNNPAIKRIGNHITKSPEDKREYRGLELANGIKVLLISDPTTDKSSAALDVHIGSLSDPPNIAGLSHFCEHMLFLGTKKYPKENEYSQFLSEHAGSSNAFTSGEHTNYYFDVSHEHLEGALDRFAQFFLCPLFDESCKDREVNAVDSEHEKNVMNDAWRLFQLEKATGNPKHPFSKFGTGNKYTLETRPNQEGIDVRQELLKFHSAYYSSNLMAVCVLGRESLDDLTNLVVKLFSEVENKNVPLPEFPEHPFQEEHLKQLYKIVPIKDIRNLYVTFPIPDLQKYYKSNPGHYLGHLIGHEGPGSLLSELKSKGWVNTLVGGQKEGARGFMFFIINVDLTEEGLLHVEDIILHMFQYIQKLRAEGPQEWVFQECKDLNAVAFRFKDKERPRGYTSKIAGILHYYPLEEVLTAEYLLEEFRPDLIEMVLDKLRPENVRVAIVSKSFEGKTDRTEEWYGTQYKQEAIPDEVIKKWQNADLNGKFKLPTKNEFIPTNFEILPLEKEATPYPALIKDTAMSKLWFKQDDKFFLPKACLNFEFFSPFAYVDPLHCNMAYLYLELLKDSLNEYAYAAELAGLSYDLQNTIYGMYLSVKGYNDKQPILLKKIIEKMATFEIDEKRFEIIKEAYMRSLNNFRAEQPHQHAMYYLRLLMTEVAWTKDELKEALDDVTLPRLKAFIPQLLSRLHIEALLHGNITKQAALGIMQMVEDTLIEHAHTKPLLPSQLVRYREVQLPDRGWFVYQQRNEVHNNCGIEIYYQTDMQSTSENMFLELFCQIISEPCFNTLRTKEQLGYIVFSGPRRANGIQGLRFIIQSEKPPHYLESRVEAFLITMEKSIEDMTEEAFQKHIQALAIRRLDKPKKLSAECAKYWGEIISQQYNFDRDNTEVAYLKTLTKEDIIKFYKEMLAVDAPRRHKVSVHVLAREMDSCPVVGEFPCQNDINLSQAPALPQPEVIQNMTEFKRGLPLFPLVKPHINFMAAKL

These compounds were tested against Insulin-degrading enzyme (Homo sapiens) (UniProt P14735) (assay: enhanced cellular IDE Abeta cleavage – fluorescence polarization, HEK cells, FAbeta-B substrate, primary screen (AID 493087)). Conditions: at 5.96 µM, hits give high values, 0% vehicle, 100% cell-free pure enzyme wells.

Compound	activation
COc1ccccc1OP(C)(=O)Nc1ccccc1 (stereo unspecified)	inactive: 1.71%
